For this data set the following is noted: for total white blood cell count: both treated and control.

Each structure is given as a SMILES string. Like-named read-outs stand apart in the source and are kept apart here.

In the case of `NC(=O)c1ncn([C@@H]2O[C@H](CO)[C@@H](O)[C@H]2O)n1` [ribavirin], the “other clinical chemical tests, sporadic slight elevations” value (all three time periods, treated and control) was “not considered to indicate drug toxicity”. The “direct bilirubin, one patient” value is, setting by setting: (at admission (before treatment)) 1.0 mg/dL; (at discharge) 0.5 mg/dL; (at one month) “normal”. The “total white blood cell count” value is on record as “about 6,000” (at admission) and “about 4500” (at discharge). The “hematocrit, hemoglobin, and red cell count” value (treated versus control, admission or discharge) was “no significant changes”. Further, the “direct bilirubin, mean” value (treated, at admission (before treatment), controls 0.12 mg/dl, P=0.03) is 0.24 mg/dL. The “creatine phosphokinase, mean” value (treated, at discharge, control 81 units/ml, P=0.04, due to 5 patients already elevated before treatment) stood at 284 units/ml. Besides, under “treated, at followup, 4 control also”, the “patients with abnormally high CPK values” is 4.

These data come from patent US4649911A, “Small particle aerosol generator for treatment of respiratory disease including the lungs” (Baylor College of Medicine, priority 1986, dated 1987).
